This is an account of results in US20200215099A1, “NON-ANTICOAGULANT SULFATED OR SULFONATED POLYSACCHARIDES” (Baxalta Incorporated, priority 2012, published 2020).

In the data set the test system is contact pathway. Kind of data set: CAT in normal plasma with and without CTI. Type of data set: biochemical. Conditions: 1 pM hTF, 4 μM PL, ±41 μg/mL CTI, listed as sulfated 6-carboxy-icodextrin (35 kDa; 10.1% S).

For the substance “sulfated 6-carboxy-icodextrin [6-carboxy-Icodextrin (unfractionated, batch 2)]”, the “concentration activating the contact pathway” value worked out at 33000 ng/mL.
